In patent US20210038737A1 (OHIO STATE INNOVATION FOUNDATION, published 2021):

Target: CAL PDZ domain (CALP5-His) (UniProt Q9HD26 288-371)
Test: FP competition, condition A: probe peptide 26 (50 nM) with 100 nM CALP5-His; competitor titrated

B1: peptide 1: Ac-Arg-Arg-Phe-Trp-Gln-Cys-Thr-Arg-Val-OH (peptide)
peptide: RRFWQCTRV
modifications: N-terminal acetyl (Ac)
notes: Synthetic peptide; also called Compd 1; Compound 1
Question: For B1, which IC50 is on record?
Answer: 4.52 µM
